# Tested on: sigma receptor
# Experiment: [3H]DTG displacement radioligand binding assay, guinea pig brain membranes
compound,measurement,setting,value
CN(C(=O)Cc1ccc(Cl)c(Cl)c1)[C@@H]1CCCC[C@H]1N1CCCC1 (relative stereo),affinity for / displacement at the [3H]DTG binding site,,moderate affinity
same,IC50,"read-out: IC50 vs. [3H]DTG, Table III, ± SEM, average from 2-4 separate experiments in triplicate",1.35 µM
